The term inhibition denotes the drop in the measured response relative to a control, in per cent.

Amino acid sequences for entries named in this document (tags omitted).
UniProt P9WFX0, whole entry: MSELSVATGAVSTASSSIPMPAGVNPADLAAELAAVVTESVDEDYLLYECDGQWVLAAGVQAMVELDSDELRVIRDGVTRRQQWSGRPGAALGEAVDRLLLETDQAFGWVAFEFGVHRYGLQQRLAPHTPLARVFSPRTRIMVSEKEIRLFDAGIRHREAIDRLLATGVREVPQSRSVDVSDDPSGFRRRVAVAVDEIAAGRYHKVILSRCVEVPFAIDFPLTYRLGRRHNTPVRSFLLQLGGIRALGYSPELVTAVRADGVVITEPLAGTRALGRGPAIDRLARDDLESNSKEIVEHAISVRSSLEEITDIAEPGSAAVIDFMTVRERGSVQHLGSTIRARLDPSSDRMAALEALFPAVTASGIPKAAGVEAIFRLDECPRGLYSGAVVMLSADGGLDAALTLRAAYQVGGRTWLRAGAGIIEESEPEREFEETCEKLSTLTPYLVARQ

The list shows a part of the results, in another mix than the full data. The source made the active and inactive calls. Cut-off read from the data, not from the text of the source: active = inhibition mostly above about 56% (no sharp cut-off); inactive = mostly below about 77%.

In the assay the target is Salicylate synthase (Mycobacterium tuberculosis (strain CDC 1551 / Oshkosh)) (UniProt P9WFX0). Nature of the assay: inhibitors of M. tuberculosis MbtI – biochemical, fluorescence intensity, primary screen (AID 493033). Particulars: purified MbtI enzyme, fluorescence intensity read-out; active compounds read high; concentration not given here.
As for `CN(CCCl)CCCl`, the inhibition is inactive: -20.6%.

(Values after PubChem BioAssay AID493033 (ICCB-Longwood Screening Facility, Harvard Medical School, 2011).)
